Here are results for 26 compounds from PubChem BioAssay AID540295 (The Scripps Research Institute Molecular Screening Center, 2011).

Protein sequences, listed by entry. Tags and fused reporters are not part of them.
UniProt P32245, whole entry: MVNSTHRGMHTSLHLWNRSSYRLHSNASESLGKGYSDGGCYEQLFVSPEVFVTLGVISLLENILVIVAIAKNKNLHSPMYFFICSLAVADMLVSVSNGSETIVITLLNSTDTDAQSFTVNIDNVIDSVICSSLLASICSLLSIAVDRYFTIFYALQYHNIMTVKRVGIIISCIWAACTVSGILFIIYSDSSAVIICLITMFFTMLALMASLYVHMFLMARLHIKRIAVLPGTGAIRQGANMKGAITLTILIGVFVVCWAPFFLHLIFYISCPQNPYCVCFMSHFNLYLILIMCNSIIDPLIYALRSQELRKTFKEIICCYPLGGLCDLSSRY

The entries are a selection whose mix differs from that of the whole data set. Some of these compounds have results that are not shown, active ones among them. Activity calls are given as the source filed them.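 Rule for the calls: active = inhibition above its plate's cutoff, the mean of tested wells on that plate plus 3 SD (cut at about 29% in these data); inactive = the rest.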

For this experiment, the target named is Melanocortin receptor 4 (Homo sapiens) (UniProt P32245). Briefly: MC4R antagonists of cAMP signaling, primary screen, cell-based, TR-FRET, antagonist arm of biased-ligand search (AID 540295).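 Note: 0% = Melanotan II alone and 100% = Melanotan II plus saturating MCL0020.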 As to conditions: MC4R-expressing cells, MTII-stimulated cAMP, LANCE TR-FRET; at 6.5 µM; active compounds read high.
The inhibition is the change of the read-out against control, counted positive when it falls. Regarding `COc1ccc(Br)c(C(=O)NCC2(N3CCCCC3)CCCCC2)c1`, the inhibition is inactive: -0.22%. On to `C=C(C)C#CC(O)(C(=O)OC1CCN(C)CC1)c1ccccc1` (stereo unspecified), for which the inhibition was inactive: -4.67%. Regarding `CN(C)c1cccc(C(=O)NCC2(N(C)C)CCCCC2)c1`, the inhibition was inactive: 8.88%. As for `O=C(OCCN1CCCC1)C(O)(c1ccccc1)c1ccccc1`, the inhibition was inactive: -1.99%. As for `CC(C)Oc1ccc(C(=O)NCC2(N(C)C)CCCCC2)cc1`, the inhibition was inactive: -2.46%. For the compound `O=C(OC1CN2CCC1CC2)C(CO)(c1ccccc1)c1ccccc1` (stereo unspecified), the inhibition is inactive: 8.9%. Then `COc1ccc(Cl)cc1C(=O)NCC1(N(C)C)CCCCC1`, with inactive: 4.35%.

Consider `COc1cccc(C(=O)NCC2(N3CCCCC3)CCCCC2)c1`, for which the inhibition was inactive: 3.35%. As for `O=C(NCC1(N2CCCCC2)CCCCC1)c1cccc(Cl)c1`, the inhibition was inactive: 5.16%. Consider `CN(C)C1(CNC(=O)c2ccc(Br)cc2)CCCCC1`, for which the inhibition was inactive: 5.08%. For `COc1cc(C(=O)NCC2(N(C)C)CCCCC2)c([N+](=O)[O-])cc1OC` the value was inactive: -4.34%; for `O=C(NCC1(N2CCCCC2)CCCCC1)c1cc(F)c(F)cc1Cl`, inactive: -1.24%; for `C=CCN1CCN(CCOC(=O)C(O)(c2ccccc2)c2ccccc2)CC1`, inactive: 15.5%. Turning to `O=C(NCC1(N2CCCCC2)CCCCC1)c1cccc(Br)c1`, the inhibition was inactive: -5.05%. On to `CCN1CCCC(OC(=O)C2(O)c3ccccc3C=Cc3ccccc32)C1` (stereo unspecified), for which the inhibition was inactive: -1.63%. Take `Cc1cc(C(=O)NCC2(N3CCCCC3)CCCCC2)ccc1[N+](=O)[O-]`: the inhibition was inactive: 1.82%. With `COc1ccc(C(=O)NCC2(N(C)C)CCCCC2)cc1`, the inhibition is inactive: 7.9%. With `CN(C)c1ccc(C(=O)NCC2(N(C)C)CCCCC2)cc1`, the inhibition is inactive: -1.51%.

For `CN(C)C1CCCC1OC(=O)C(O)(c1ccccc1)c1ccccc1` (stereo unspecified), the inhibition is inactive: 17.8%.

On to `Cc1ccccc1C(=O)NCC1(N2CCCCC2)CCCCC1`, for which the inhibition is inactive: 4.44%.

On to `CC(C)N1C(=O)CC2(CCN(CCOC(=O)C(O)(c3ccccc3)c3ccccc3)CC2)C1=O`, for which the inhibition is inactive: 10.5%. For `COc1cc(SC)ccc1C(=O)NCC1(N(C)C)CCCCC1` the value was inactive: 0.46%; for `CCN(CC)CC(C)C(C)OC(=O)C(O)(c1ccccc1)c1ccccc1` (stereo unspecified), inactive: 5.68%. Take `Cc1ccc(C(=O)NCC2(N3CCCCC3)CCCCC2)cc1`: the inhibition was inactive: 9.8%.

Regarding `O=C(NCC1(N2CCCCC2)CCCCC1)c1cc([N+](=O)[O-])ccc1Cl`, the inhibition is inactive: 8%. As for `CN1[C@@H]2CC[C@H]1CC(OC(=O)C(O)(c1ccccc1)c1ccccc1)C2` (stereo partly specified), the inhibition is inactive: 12.5%.
